{
  "source": "paper PMC11869525",
  "about": "“Replisomal coupling between the α-pol III core and the τ-subunit of the clamp loader complex (CLC) are essential for genomic integrity in Escherichia coli” (The Journal of Biological Chemistry, 2025)",
  "assay_in_all_cases": "cell-based or functional assay",
  "key": {"[1]": {"target": "T1, Pol III α-subunit L1128S of the Pol III core (αεθ) (E. coli, UniProt P10443 1-1160, L1128S)", "T1 sequence": "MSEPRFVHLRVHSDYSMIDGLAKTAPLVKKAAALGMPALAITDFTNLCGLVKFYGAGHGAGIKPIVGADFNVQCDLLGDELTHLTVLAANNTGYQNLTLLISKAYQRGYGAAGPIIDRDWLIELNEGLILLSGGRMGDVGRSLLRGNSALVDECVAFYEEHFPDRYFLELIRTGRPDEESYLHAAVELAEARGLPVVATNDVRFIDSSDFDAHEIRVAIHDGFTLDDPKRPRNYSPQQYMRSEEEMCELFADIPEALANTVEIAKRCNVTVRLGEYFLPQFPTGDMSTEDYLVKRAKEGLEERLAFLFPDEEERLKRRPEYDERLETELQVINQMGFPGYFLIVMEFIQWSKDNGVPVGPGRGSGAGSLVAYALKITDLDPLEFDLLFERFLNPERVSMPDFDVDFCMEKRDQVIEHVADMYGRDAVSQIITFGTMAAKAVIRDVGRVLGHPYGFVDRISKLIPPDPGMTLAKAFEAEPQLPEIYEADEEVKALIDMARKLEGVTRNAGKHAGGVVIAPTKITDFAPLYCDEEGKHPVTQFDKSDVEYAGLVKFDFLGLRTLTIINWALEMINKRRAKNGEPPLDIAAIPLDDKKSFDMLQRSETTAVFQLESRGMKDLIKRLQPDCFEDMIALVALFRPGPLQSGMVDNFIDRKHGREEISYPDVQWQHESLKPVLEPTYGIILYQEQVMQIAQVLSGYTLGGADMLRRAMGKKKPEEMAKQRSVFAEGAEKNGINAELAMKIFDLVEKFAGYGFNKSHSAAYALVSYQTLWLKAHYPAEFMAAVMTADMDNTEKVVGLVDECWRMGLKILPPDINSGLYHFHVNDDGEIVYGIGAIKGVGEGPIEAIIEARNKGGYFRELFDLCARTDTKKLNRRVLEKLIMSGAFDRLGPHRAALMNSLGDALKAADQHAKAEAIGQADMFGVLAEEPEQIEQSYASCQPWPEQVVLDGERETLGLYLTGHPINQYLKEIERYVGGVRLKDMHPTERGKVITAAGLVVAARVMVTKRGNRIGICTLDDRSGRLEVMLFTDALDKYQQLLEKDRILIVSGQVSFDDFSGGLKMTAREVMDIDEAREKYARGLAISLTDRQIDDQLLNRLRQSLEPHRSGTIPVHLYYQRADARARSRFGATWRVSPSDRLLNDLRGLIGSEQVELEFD"}, "[2]": {"target": "T2, Pol III α-subunit Y1119A of the Pol III core (αεθ) (E. coli, UniProt P10443 1-1160, Y1119A)", "T2 sequence": "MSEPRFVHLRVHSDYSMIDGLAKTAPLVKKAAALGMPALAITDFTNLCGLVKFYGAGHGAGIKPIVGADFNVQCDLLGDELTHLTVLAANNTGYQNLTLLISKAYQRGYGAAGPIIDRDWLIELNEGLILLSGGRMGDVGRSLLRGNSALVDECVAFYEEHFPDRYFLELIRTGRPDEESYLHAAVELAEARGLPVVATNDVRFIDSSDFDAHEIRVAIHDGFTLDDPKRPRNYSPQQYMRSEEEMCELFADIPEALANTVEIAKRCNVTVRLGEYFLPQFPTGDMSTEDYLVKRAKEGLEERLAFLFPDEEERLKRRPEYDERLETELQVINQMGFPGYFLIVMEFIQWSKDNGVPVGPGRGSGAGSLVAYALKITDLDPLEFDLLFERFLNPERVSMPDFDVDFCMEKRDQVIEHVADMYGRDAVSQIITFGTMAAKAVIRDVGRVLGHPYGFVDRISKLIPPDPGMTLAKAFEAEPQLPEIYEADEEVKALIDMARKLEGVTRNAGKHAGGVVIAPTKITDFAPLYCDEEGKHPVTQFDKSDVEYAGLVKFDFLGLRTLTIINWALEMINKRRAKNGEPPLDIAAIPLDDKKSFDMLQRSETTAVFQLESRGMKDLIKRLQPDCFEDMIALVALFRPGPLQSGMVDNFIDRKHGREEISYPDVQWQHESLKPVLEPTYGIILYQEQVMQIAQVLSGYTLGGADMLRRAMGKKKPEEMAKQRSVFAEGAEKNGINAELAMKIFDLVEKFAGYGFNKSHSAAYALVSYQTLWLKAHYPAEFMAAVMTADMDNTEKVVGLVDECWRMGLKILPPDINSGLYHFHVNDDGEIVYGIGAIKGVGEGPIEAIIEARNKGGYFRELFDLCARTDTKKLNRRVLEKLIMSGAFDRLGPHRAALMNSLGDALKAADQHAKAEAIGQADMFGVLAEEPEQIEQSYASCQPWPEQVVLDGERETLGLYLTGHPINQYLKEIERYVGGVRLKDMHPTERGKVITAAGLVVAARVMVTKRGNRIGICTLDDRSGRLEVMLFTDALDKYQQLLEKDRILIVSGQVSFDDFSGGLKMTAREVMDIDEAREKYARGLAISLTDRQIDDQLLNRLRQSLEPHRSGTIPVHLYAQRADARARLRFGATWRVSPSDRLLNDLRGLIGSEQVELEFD"}, "[3]": {"target": "T3, Pol III α-subunit L1097/8S of the Pol III core (αεθ) (E. coli, UniProt P10443 1-1160, L1097S | L1098S)", "T3 sequence": "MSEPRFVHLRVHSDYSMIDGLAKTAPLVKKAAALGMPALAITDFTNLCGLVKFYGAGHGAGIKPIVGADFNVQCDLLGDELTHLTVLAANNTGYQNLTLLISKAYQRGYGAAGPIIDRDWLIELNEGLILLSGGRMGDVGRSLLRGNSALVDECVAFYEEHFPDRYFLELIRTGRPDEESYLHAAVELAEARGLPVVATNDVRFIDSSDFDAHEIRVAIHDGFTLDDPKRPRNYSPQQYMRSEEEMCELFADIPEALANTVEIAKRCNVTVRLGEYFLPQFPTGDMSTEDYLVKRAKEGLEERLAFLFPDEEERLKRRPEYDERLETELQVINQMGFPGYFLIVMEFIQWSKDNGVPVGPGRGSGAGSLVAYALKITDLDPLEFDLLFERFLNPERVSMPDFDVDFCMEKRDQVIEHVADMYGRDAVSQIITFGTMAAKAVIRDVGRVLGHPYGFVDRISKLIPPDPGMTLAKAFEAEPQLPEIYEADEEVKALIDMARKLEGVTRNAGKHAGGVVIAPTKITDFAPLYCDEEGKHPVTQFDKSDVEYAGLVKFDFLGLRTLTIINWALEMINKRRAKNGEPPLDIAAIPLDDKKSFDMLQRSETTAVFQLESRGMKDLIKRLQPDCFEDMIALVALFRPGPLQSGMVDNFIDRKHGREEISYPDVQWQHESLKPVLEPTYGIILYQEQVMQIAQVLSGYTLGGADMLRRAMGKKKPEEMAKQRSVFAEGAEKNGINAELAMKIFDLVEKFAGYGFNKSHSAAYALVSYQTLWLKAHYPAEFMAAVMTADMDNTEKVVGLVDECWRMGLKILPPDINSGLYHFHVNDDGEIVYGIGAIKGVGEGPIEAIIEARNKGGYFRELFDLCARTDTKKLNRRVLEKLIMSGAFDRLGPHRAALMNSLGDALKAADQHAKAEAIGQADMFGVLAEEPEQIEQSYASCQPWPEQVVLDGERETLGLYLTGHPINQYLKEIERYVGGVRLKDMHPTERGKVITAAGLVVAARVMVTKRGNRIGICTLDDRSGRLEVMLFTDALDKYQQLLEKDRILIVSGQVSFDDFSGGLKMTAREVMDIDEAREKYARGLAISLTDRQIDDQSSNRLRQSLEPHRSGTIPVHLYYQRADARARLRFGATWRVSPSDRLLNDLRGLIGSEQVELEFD"}},
  "data": [
    {"binder": "clamp loader complex τ3δδ'ψχ (complex, E. coli) chain 1: MSYQVLARKWRPQTFADVVGQEHVLTALANGLSLGRIHHAYLFSGTRGVGKTSIARLLAKGLNCETGITATPCGVCDNCREIEQGRFVDLIEIDAASRTKVEDTRDLLDNVQYAPARGRFKVYLIDEVHMLSRHSFNALLKTLEEPPEHVKFLLATTDPQKLPVTILSRCLQFHLKALDVEQIRHQLEHILNEEHIAHEPRALQLLARAAEGSLRDALSLTDQAIASGDGQVSTQAVSAMLGTLDDDQALSLVEAMVEANGERVMALINEAAARGIEWEALLVEMLGLLHRIAMVQLSPAALGNDMAAIELRMRELARTIPPTDIQLYYQTLLIGRKELPYAPDRRMGVEMTLLRALAFHPRMPLPEPEVPRQSFAPVAPTAVMTPTQVPPQPQSAPQQAPTVPLPETTSQVLAARQQLQRVQGATKAKKSEPAAATRARPVNNAALERLASVTDRVQARPVPSALEKAPAKKEAYRWKATTPVMQQKEVVATPKALKKALEHEKTPELAAKLAAEAIERDPWAAQVSQLSLPKLVEQVALNAWKEESDNAVCLHLRSSQRHLNNRGAQQKLAEALSMLKGSTVELTIVEDDNPAVRTPLEWRQAIYEEKLAQARESIIADNNIQTLRRFFDAELDEESIRPI chain 2: MIRLYPEQLRAQLNEGLRAAYLLLGNDPLLLQESQDAVRQVAAAQGFEEHHTFSIDPNTDWNAIFSLCQAMSLFASRQTLLLLLPENGPNAAINEQLLTLTGLLHDDLLLIVRGNKLSKAQENAAWFTALANRSVQVTCQTPEQAQLPRWVAARAKQLNLELDDAANQVLCYCYEGNLLALAQALERLSLLWPDGKLTLPRVEQAVNDAAHFTPFHWVDALLMGKSKRALHILQQLRLEGSEPVILLRTLQRELLLLVNLKRQSAHTPLRALFDKHRVWQNRRGMMGEALNRLSQTQLRQAVQLLTRTELTLKQDYGQSVWAELEGLSLLLCHKPLADVFIDG chain 3: MRWYPWLRPDFEKLVASYQAGRGHHALLIQALPGMGDDALIYALSRYLLCQQPQGHKSCGHCRGCQLMQAGTHPDYYTLAPEKGKNTLGVDAVREVTEKLNEHARLGGAKVVWVTDAALLTDAAANALLKTLEEPPAETWFFLATREPERLLATLRSRCRLHYLAPPPEQYAVTWLSREVTMSQDALLAALRLSAGSPGAALALFQGDNWQARETLCQALAYSVPSGDWYSLLAALNHEQAPARLHWLATLLMDALKRHHGAAQVTNVDVPGLVAELANHLSPSRLQAILGDVCHIREQLMSVTGINRELLITDLLLRIEHYLQPGVVLPVPHL chain 4: MTSRRDWQLQQLGITQWSLRRPGALQGEIAIAIPAHVRLVMVANDLPALTDPLVSDVLRALTVSPDQVLQLTPEKIAMLPQGSHCNSWRLGTDEPLSLEGAQVASPALTDLRANPTARAALWQQICTYEHDFFPRND chain 5: MKNATFYLLDNDTTVDGLSAVEQLVCEIAAERWRSGKRVLIACEDEKQAYRLDEALWARPAESFVPHNLAGEGPRGGAPVEIAWPQKRSSSRRDILISLRTSFADFATAFTEVVDFVPYEDSLKQLARERYKAYRVAGFNLNTATWK", "values": [
      {"measurement": "leading strand synthesis rate for products greater than 23 kb in the whole replisome TFII rolling circle assay, fold lower than WT", "setting": "[1]", "result": 4, "unit": "fold"},
      {"measurement": "leading strand synthesis rate for products greater than 23 kb in the whole replisome TFII rolling circle assay, fold lower than WT", "setting": "[2]", "result": 2, "unit": "fold"},
      {"measurement": "leading strand synthesis rate for products greater than 23 kb in the whole replisome TFII rolling circle assay, fold lower than WT", "setting": "[3]", "result": "> 20", "unit": "fold"}
    ]}
  ]
}
